In PubChem BioAssay AID720 (The Scripps Research Institute Molecular Screening Center, 2007):
Only a part is listed here, and it is no random draw. Active and inactive are the calls of the source.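 How the source made its calls: active means inhibition above the screen-wide mean inhibition plus 3 SD (cut at about 15% in these data); inactive means the rest.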

By UniProt entry, the sequences of proteins in these tests, tags left out.
UniProt P54760, whole entry: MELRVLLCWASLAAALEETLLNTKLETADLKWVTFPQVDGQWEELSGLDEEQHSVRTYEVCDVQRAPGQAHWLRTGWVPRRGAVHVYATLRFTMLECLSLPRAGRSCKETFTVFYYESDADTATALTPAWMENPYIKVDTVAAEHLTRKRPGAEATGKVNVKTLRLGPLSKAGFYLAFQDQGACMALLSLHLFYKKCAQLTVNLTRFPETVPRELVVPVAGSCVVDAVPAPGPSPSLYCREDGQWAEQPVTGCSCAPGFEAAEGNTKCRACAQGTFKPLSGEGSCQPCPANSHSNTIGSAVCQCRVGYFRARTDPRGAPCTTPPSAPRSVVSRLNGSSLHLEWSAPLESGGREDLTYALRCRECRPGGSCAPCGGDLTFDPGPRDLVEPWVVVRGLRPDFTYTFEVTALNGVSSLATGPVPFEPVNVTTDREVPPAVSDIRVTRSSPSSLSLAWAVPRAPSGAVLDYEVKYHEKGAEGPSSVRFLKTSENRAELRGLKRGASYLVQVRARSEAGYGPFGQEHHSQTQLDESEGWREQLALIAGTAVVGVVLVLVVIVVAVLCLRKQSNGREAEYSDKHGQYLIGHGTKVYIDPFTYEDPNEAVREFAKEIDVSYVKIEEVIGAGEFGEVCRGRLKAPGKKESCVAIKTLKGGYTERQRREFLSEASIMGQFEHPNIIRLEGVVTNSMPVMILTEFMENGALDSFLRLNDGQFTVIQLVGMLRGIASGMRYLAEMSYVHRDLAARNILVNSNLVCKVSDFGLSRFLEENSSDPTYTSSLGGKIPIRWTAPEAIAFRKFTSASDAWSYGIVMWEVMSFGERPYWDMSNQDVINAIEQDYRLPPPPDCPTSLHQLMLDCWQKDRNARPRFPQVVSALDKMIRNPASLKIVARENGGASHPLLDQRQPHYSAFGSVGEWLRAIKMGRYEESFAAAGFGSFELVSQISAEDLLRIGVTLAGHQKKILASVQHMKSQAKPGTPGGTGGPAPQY

Each compound was assayed against Ephrin type-B receptor 4 (Homo sapiens) (UniProt P54760) (assay: EphB4-ephrin-B2 interaction antagonists, primary screen, biochemical, TNYL-RAW peptide probe, fluorescence polarization (AID 720;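 further: 0% = DMSO wells and 100% = excess unlabeled TNYL-RAW peptide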)). Settings: EphB4 LBD / TNYL-RAW-Alexa532 peptide, at 7 µM, active compounds read high.

SMILES | inhibition
CCOc1ncccc1C(=O)NCC1(N2CCOCC2)CCCCC1 | inactive: -0.94%
CCC(CO)(C(=O)OC1CN2CCC1CC2)c1ccccc1 (stereo not given) | inactive: 0.85%
c1ccc(CN2CCC(Nc3ccccc3)CC2)cc1 | inactive: 4.39%
N/C(=N\O)c1c(N)no[n+]1[O-] | inactive: -6.85%
CN1CCC(Nc2cccc(F)c2)CC1 | inactive: -1.9%
N#CC1(Nc2ccccc2)CCN(CCc2ccccc2)CC1 | inactive: -1.47%
O=C(NCC1(N2CCOCC2)CCCCC1)c1cc(=O)[nH]c2ccccc12 | inactive: 5.08%
COc1ccc(NC2CCN(CCc3ccccc3)CC2)c(OC)c1 | inactive: 1.29%
O=C(NCC1(N2CCOCC2)CCCCC1)c1cc2ccccc2o1 | inactive: 5.64%
O=C(OC1CN2CCC1CC2)C1c2ccccc2Oc2ccccc21 (stereo not given) | inactive: -0.66%
